According to ChEMBL document CHEMBL3421561, “CNS drug design: balancing physicochemical properties for optimal brain exposure” (J Med Chem, 2015):

System: Nucleic Acid
Experiment: Ratio of drug uptake in brain to plasma in rat
Type: ADME

## CN1CC[C@]23c4c5ccc(O)c4O[C@H]2[C@@H](O)C=C[C@H]3[C@H]1C5 [MORPHINE]
  Kp: 0.54
